This assay has as its target Human α2δ-1 subunit of Cav2.2 calcium channel (Homo sapiens (Human), UniProt P54289). Kind of assay: Human α2δ-1 subunit of Cav2.2 calcium channel assay ([3H]-Gabapentin binding). The following applies: read-out: α2δ − 1 (Ki).

Protein sequences, listed by entry. Tags and fused reporters are not part of them. Lines headed by an entry give the natural chain unless they say otherwise; changes in a name come on top. Residues count along the entry.
UniProt P54289, 25-1103 limits assumed: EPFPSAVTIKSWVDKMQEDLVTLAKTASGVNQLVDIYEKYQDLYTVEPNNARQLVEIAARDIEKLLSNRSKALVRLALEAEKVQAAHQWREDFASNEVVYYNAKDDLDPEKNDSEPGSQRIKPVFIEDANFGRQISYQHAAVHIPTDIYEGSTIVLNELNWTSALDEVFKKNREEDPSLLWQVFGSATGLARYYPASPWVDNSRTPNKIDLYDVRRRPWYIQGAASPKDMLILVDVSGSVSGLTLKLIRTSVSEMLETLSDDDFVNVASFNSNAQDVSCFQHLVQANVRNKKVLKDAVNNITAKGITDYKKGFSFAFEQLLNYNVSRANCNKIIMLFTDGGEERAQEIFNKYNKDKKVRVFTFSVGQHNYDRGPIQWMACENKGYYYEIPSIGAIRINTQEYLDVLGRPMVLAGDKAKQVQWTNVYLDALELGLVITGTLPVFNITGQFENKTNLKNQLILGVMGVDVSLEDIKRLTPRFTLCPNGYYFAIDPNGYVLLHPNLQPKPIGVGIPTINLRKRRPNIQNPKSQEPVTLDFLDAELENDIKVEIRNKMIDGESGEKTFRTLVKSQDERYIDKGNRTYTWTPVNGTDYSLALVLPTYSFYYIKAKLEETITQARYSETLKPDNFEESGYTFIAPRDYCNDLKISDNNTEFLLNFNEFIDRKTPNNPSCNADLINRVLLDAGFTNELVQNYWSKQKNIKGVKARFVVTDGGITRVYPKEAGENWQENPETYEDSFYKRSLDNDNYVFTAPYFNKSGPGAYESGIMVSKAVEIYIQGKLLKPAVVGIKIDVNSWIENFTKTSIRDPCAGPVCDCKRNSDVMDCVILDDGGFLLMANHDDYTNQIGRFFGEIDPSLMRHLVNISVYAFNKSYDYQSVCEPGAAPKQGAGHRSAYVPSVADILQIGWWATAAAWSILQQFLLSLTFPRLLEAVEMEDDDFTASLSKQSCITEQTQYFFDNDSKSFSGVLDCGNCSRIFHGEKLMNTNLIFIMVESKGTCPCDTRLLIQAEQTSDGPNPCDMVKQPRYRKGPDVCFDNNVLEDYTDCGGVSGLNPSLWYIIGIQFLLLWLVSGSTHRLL

Only a part of the results on these compounds is given; other tests are left out.

For the compound “N-(1-benzylpiperidin-4-yl)-N-(2-phenyl-2H-1,2,3-triazol-4-yl)thiophene-2-carboxamide”, the Ki is more than 5 µM.

On to `CCOc1ccc(-n2ccc(N(C(=O)c3nccs3)C3CCN(Cc4ccccc4)CC3)n2)cc1`, for which the Ki is more than 5 µM.

`Cc1cnccc1-n1ccc(N(C(=O)c2cccs2)C2CCN(C)CC2)n1`: the Ki lay in the range of 0.5 to 5 µM.

Consider `CC1CC(N(C(=O)c2cccs2)c2ccn(-c3ccccc3)n2)CC(C)N1Cc1ccccc1` (centres unmarked), for which the Ki is more than 5 µM.

Consider `COc1cccc(-n2ccc(N(C(=O)c3cccs3)C3CCN(C)CC3)n2)c1`, for which the Ki lay in the range of 0.1 to 0.5 µM.

As for `CN1CCC(N(C(=O)c2cccs2)c2ccn(-c3cccc(NS(C)(=O)=O)c3)n2)CC1`, the inhibition constant Ki was in the range of 0.1 to 0.5 µM.

For `COc1cccc(-n2ccc(N(C(=O)c3cccc(O)c3)C3CCN(C)CC3)n2)c1`, the Ki was more than 5 µM.

Turning to `CN1CCC(N(C(=O)c2cccs2)c2ccn(-c3cccc(N(C)C)c3)n2)CC1`, the Ki fell in the range of 0.5 to 5 µM.

As for `CN1CCC(N(C(=O)c2cccs2)c2ccn(-c3cccc(OC(F)(F)F)c3)n2)CC1`, the inhibition constant Ki lay within 0.5 to 5 µM.

As to `Cc1nnc(-c2cccc(-n3ccc(N(C(=O)c4cccc(NS(C)(=O)=O)c4)C4CCN(C)CC4)n3)c2)o1`, the Ki was more than 5 µM.

Take `Cc1nnc(-c2cccc(-n3ccc(N(C(=O)c4nccs4)C4CCN(Cc5ccccc5)CC4)n3)c2)o1`: the Ki lay in the range of 0.1 to 0.5 µM.

`CN1CCC(N(C(=O)c2cccs2)c2ccn(-c3cccc(F)c3)n2)CC1`: the Ki lay in the range of 0.5 to 5 µM.

With `COc1ccc(-n2ccc(N(C(=O)c3cccs3)C3CCN(C)CC3)n2)cc1OC`, the Ki is more than 5 µM.

On to `O=C(c1cccs1)N(c1ccn(-c2ccccc2)n1)C1CCN(Cc2ccccc2)CC1`, for which the Ki was 0.5 to 5 µM.

With `O=C(c1cccs1)N(c1cncc(-c2ccccc2)n1)C1CCN(Cc2ccccc2)CC1`, the Ki is more than 5 µM.

Turning to `O=C(c1cccs1)N(c1ccn(-c2cccnc2)n1)C1CCN(Cc2ccccc2)CC1`, the Ki was 0.5 to 5 µM.

Take `Cc1nnc(-c2cccc(-n3ccc(N(C(=O)c4cccs4)C4CCN(C)CC4)n3)c2)o1`: the Ki was less than 0.1 µM.

As for `O=C(c1cccs1)N(c1cncc(-c2ccc(F)cc2)n1)C1CCN(Cc2ccccc2)CC1`, the Ki lay in the range of 0.5 to 5 µM.

In the case of `CN1CCC(N(C(=O)c2cccs2)c2ccn(-c3ccc(O)cc3Cl)n2)CC1`, the Ki is 0.5 to 5 µM.

In the case of `O=C(c1cncs1)N(c1ccn(-c2ccccc2)n1)C1CCN(Cc2ccccc2)CC1`, the Ki was more than 5 µM.

For the compound `COc1ccc(Cl)c(-n2ccc(N(C(=O)c3cccs3)C3CCN(C)CC3)n2)c1`, the Ki is more than 5 µM.

Consider `Cc1nnc(-c2cccc(-n3ccc(N(C(=O)c4cccs4)C4CCN(Cc5ccccn5)CC4)n3)c2)o1`, for which the Ki lay within 0.1 to 0.5 µM.

As for `CCOc1ccc(-n2ccc(N(C(=O)c3cccs3)C3CCN(Cc4ccccc4)CC3)n2)cc1`, the Ki is more than 5 µM.

In the case of `O=C(c1nccs1)N(c1ccn(-c2ccc(F)cc2)n1)C1CCN(Cc2ccccc2)CC1`, the inhibitory constant (Ki) fell in the range of 0.5 to 5 µM.

Take `Cc1nnc(-c2cccc(-n3ccc(N(C(=O)c4cccs4)C4CCN(CC(O)c5ccccc5)CC4)n3)c2)o1` (centres unmarked): the Ki was more than 5 µM.

Consider `COc1ccccc1C(=O)N(c1ccn(-c2ccccc2)n1)C1CCN(C)CC1`, for which the Ki is more than 5 µM.

With `Cc1cccc(F)c1C(=O)N(c1ccn(-c2ccccc2)n1)C1CCN(C)CC1`, the Ki is more than 5 µM.

For `CN1CCC(N(C(=O)c2cccs2)c2ccn(-c3ccc(F)cc3)n2)CC1`, the Ki was 0.5 to 5 µM.

As for `N#Cc1ccc(-n2ccc(N(C(=O)c3cccs3)C3CCN(Cc4ccccc4)CC3)n2)cc1`, the Ki is more than 5 µM.

For the compound `COc1cc(OC)cc(-n2ccc(N(C(=O)c3cccs3)C3CCN(C)CC3)n2)c1`, the Ki is more than 5 µM.

On to `COc1cc(F)cc(-n2ccc(N(C(=O)c3cccs3)C3CCN(C)CC3)n2)c1`, for which the Ki fell in the range of 0.1 to 0.5 µM.

Take `CN1CCC(N(C(=O)c2cccs2)c2ccn(-c3ccccn3)n2)CC1`: the inhibitory constant (Ki) is more than 5 µM.

Turning to `Cc1nnc(-c2cccc(-n3ccc(N(C(=O)c4cccs4)C4CCN(Cc5ccc(F)c(F)c5)CC4)n3)c2)o1`, the inhibition constant Ki lay in the range of 0.1 to 0.5 µM.

For the compound `O=C(c1ccco1)N(c1ncn(-c2ccccc2)n1)C1CCN(Cc2ccccc2)CC1`, the inhibition constant Ki is more than 5 µM.

`Cc1nnc(-c2cccc(-n3ccc(N(C(=O)c4cccc(-c5ncc[nH]5)c4)C4CCN(C)CC4)n3)c2)o1`: the Ki was more than 5 µM.

In the case of `CCN1CCC(N(C(=O)c2cccs2)c2ccn(-c3ccccc3)n2)CC1`, the Ki lay in the range of 0.5 to 5 µM.

As for `Cc1nnc(-c2cccc(-n3ccc(N(C(=O)c4ccc(O)cc4)C4CCN(C)CC4)n3)c2)o1`, the Ki was more than 5 µM.

Take `CN1CCC(N(C(=O)c2ccccc2)c2ccn(-c3ccccc3)n2)CC1`: the Ki is more than 5 µM.

As to `Cc1ccc(C(=O)N(c2ccn(-c3ccccc3)n2)C2CCN(C)CC2)cn1`, the inhibitory constant (Ki) was more than 5 µM.

`CN1CCC(N(C(=O)c2cccs2)c2ccn(-c3cccc(O)c3)n2)CC1`: the Ki is 0.5 to 5 µM.

As to `CCOc1cccc(-n2ccc(N(C(=O)c3cccs3)C3CCN(C)CC3)n2)c1`, the Ki lay in the range of 0.5 to 5 µM.

In the case of `Cc1ccccc1-n1ccc(N(C(=O)c2cccs2)C2CCN(C)CC2)n1`, the Ki lay in the range of 0.5 to 5 µM.

For `CN1CCC(N(C(=O)c2cccs2)c2ccn(-c3ccc(C#N)cc3)n2)CC1`, the Ki was 0.5 to 5 µM.

For the compound `COc1cc(-n2ccc(N(C(=O)c3cccs3)C3CCN(C)CC3)n2)ccn1`, the inhibitory constant (Ki) lay in the range of 0.5 to 5 µM.

For `COc1cc(-n2ccc(N(C(=O)c3cccs3)C3CCN(C)CC3)n2)ccc1F`, the Ki was in the range of 0.5 to 5 µM.

On to `COc1cc(C)cc(-n2ccc(N(C(=O)c3cccs3)C3CCN(C)CC3)n2)c1`, for which the Ki was 0.5 to 5 µM.

Take `CCOc1ccc(-n2ccc(N(C(=O)c3cccs3)C3CCN(C)CC3)n2)cc1`: the Ki is more than 5 µM.

With `CN1CCC(N(C(=O)c2cccs2)c2ccn(-c3cc(O)ccc3Cl)n2)CC1`, the inhibition constant Ki is more than 5 µM.

Take `CC1CC(N(C(=O)c2cccs2)c2ccn(-c3ccccc3)n2)CC(C)N1C` (centres unmarked): the Ki lay in the range of 0.5 to 5 µM.

As to `CN1CCC(N(C(=O)c2cccs2)c2cncc(-c3ccc(F)cc3)n2)CC1`, the Ki is more than 5 µM.

With `O=C(c1cccs1)N(c1ccn(-c2cccc(F)c2)n1)C1CCN(Cc2ccccc2)CC1`, the Ki is 0.5 to 5 µM.

Regarding `COc1cccc(-n2ccc(N(C(=O)c3ccsc3)C3CCN(C)CC3)n2)c1`, the Ki lay in the range of 0.5 to 5 µM.

Turning to `CC(=O)Nc1cccc(-n2ccc(N(C(=O)c3cccs3)C3CCN(C)CC3)n2)c1`, the Ki fell in the range of 0.5 to 5 µM.

Regarding `Cc1csc(C(=O)N(c2ccn(-c3ccccc3)n2)C2CCN(C)CC2)n1`, the inhibitory constant (Ki) was more than 5 µM.

On to `CCOc1ccc(-c2cncc(N(C(=O)c3cccs3)C3CCN(Cc4ccccc4)CC3)n2)cc1`, for which the inhibition constant (Ki) was more than 5 µM.

For `Cc1nnc(-c2cccc(-n3ccc(N(C(=O)c4cccs4)C4CCN(Cc5ccccc5)CC4)n3)c2)o1`, the Ki is 0.1 to 0.5 µM.

Consider `O=C(c1ccoc1)N(c1ccn(-c2ccc(F)cc2)n1)C1CCN(Cc2ccccc2)CC1`, for which the Ki lay within 0.5 to 5 µM.

For `O=C(c1cccs1)N(c1ccn(-c2ccncc2)n1)C1CCN(Cc2ccccc2)CC1`, the Ki was 0.5 to 5 µM.

For the compound `Cc1nnc(-c2cccc(-n3ccc(N(C(=O)c4cccc(O)c4)C4CCN(Cc5ccccc5)CC4)n3)c2)o1`, the Ki is 0.5 to 5 µM.

With `CN1CCC(N(C(=O)c2cccs2)c2ccn(-c3cccc(C#N)c3)n2)CC1`, the Ki is 0.5 to 5 µM.

For the compound `O=C(c1cccs1)N(c1ccn(-c2ccccc2)n1)C1CCNCC1`, the Ki was 0.1 to 0.5 µM.

For `O=C(c1nccs1)N(c1ccn(-c2ccccc2)n1)C1CCN(Cc2ccccc2)CC1`, the Ki was 0.5 to 5 µM.

`COc1cccc(-n2ccc(N(C(=O)c3cccs3)C3CCN(Cc4cccc(C(F)(F)F)n4)CC3)n2)c1`: the Ki is more than 5 µM.

As for `Cc1nnc(-c2cccc(-n3ccc(N(C(=O)c4cccs4)C4CCN(CCc5ccccn5)CC4)n3)c2)o1`, the Ki was more than 5 µM.

`CC(C)CN1CCC(N(C(=O)c2cccs2)c2ccn(-c3ccccc3)n2)CC1`: the Ki was in the range of 0.5 to 5 µM.

Turning to `CN1CCC(N(C(=O)c2cccs2)c2ccn(-c3ccccc3)n2)CC1`, the Ki is 0.1 to 0.5 µM.

For the compound `O=C(c1cccs1)N(c1ccn(-c2ccncc2F)n1)C1CCN(Cc2ccccc2)CC1`, the Ki is 0.5 to 5 µM.

Take `Cc1nnc(-c2cccc(-c3cccc(N(C(=O)c4cccs4)C4CCN(C)CC4)n3)c2)o1`: the Ki lay within 0.1 to 0.5 µM.

Consider `Cc1nnc(-c2cccc(-n3ccc(N(C(=O)c4cccs4)C4CCN(Cc5cccc(C(F)(F)F)n5)CC4)n3)c2)o1`, for which the Ki lay in the range of 0.5 to 5 µM.

For the compound `CN1CCC(N(C(=O)c2cccs2)c2ccn(-c3ccncc3)n2)CC1`, the Ki was in the range of 0.5 to 5 µM.

`CN1CCC(N(C(=O)c2cccs2)c2ccn(-c3ccc(Cl)cc3Cl)n2)CC1`: the Ki lay within 0.5 to 5 µM.

For the compound `Cc1nnc(-c2cccc(-n3ccc(N(C(=O)c4ccns4)C4CCN(Cc5ccccc5)CC4)n3)c2)o1`, the Ki lay in the range of 0.1 to 0.5 µM.

Take `CN1CCC(N(C(=O)c2ccc[nH]2)c2ccn(-c3ccccc3)n2)CC1`: the inhibition constant (Ki) lay within 0.1 to 0.5 µM.

Turning to `Cc1nnc(-c2cccc(-n3cc(N(C(=O)c4cccs4)C4CCN(C)CC4)cn3)c2)o1`, the Ki was more than 5 µM.

`CN1CCC(N(C(=O)c2cccs2)c2ccn(-c3ccnn3C)n2)CC1`: the Ki is more than 5 µM.

On to `O=C(c1sccc1Cl)N(c1ccn(-c2ccccc2)n1)C1CCN(Cc2ccccc2)CC1`, for which the Ki is more than 5 µM.

On to `CN1CCC(N(C(=O)c2cccs2)c2ccn(-c3ccccc3F)n2)CC1`, for which the Ki was in the range of 0.5 to 5 µM.

Regarding `COc1ccc(-n2ccc(N(C(=O)c3cccs3)C3CCN(C)CC3)n2)cn1`, the Ki was more than 5 µM.

`COc1ccc(C(=O)N(c2ccn(-c3ccccc3)n2)C2CCN(Cc3ccccc3)CC2)cc1`: the Ki is more than 5 µM.

On to `CN1CCC(N(C(=O)c2cccs2)c2ccn(-c3ccc(F)c(O)c3)n2)CC1`, for which the Ki fell in the range of 0.5 to 5 µM.

`O=C(c1ccco1)N(c1ccn(-c2ccc(F)cc2)n1)C1CCN(Cc2ccccc2)CC1`: the Ki was more than 5 µM.

Turning to `Cc1nnc(-c2cccc(-n3ccc(N(C(=O)c4ccco4)C4CCN(Cc5ccccc5)CC4)n3)c2)o1`, the Ki was in the range of 0.1 to 0.5 µM.

Turning to `Cc1nnc(-c2cccc(C(=O)N(c3ccn(-c4ccccc4)n3)C3CCN(C)CC3)c2)o1`, the Ki is more than 5 µM.

For `COc1cccc(C(=O)N(c2ccn(-c3cccc(-c4nnc(C)o4)c3)n2)C2CCN(C)CC2)c1`, the Ki is 0.5 to 5 µM.

As for `CCOc1cccc(C(=O)N(c2ccn(-c3cccc(-c4nnc(C)o4)c3)n2)C2CCN(C)CC2)c1`, the Ki is more than 5 µM.

As for `CN1CCC(N(C(=O)c2cccnc2)c2ccn(-c3ccccc3)n2)CC1`, the Ki was more than 5 µM.
